From PMC2919811 (Analytical biochemistry, 2010)

Chains of the proteins cited; added tags and fusions are not shown. Lines headed by an entry give the natural chain unless they say otherwise; changes in a name come on top.
UniProt O94956: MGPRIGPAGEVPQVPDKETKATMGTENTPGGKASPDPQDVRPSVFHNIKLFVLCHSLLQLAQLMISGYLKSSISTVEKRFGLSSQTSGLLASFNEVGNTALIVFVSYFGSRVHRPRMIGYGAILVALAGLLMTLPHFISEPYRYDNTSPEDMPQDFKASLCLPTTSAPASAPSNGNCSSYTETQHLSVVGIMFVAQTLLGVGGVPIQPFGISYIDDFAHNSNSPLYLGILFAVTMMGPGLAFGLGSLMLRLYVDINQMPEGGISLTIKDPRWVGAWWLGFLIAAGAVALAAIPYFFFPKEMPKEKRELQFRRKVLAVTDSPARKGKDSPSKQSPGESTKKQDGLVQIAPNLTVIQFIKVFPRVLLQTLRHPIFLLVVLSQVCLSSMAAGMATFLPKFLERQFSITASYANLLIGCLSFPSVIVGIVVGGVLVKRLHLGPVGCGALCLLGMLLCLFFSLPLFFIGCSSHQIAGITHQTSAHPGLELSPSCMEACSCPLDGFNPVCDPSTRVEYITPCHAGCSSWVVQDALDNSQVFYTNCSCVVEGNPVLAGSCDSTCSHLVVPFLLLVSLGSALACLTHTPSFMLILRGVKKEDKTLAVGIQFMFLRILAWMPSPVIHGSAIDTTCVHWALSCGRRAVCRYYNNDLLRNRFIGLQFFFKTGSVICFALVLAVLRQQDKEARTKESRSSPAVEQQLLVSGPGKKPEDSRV
UniProt Q9Y6L6: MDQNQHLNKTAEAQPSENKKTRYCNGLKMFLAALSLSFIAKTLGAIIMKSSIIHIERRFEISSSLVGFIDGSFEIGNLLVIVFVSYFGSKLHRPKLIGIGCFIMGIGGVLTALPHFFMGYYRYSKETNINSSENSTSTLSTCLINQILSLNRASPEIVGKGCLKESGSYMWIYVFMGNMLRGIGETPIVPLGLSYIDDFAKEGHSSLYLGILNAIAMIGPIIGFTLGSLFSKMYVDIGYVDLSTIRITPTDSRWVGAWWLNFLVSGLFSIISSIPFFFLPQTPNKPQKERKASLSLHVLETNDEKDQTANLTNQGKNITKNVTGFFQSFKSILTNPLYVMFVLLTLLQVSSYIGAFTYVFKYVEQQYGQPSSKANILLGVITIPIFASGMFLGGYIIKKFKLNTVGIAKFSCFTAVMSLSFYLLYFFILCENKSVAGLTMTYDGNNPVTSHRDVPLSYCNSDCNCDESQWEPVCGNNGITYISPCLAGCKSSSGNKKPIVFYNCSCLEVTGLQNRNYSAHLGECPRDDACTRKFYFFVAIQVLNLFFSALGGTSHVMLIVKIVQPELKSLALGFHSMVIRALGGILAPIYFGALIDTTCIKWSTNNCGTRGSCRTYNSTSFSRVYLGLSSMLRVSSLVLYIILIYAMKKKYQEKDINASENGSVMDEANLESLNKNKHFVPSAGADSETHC
UniProt Q9NPD5: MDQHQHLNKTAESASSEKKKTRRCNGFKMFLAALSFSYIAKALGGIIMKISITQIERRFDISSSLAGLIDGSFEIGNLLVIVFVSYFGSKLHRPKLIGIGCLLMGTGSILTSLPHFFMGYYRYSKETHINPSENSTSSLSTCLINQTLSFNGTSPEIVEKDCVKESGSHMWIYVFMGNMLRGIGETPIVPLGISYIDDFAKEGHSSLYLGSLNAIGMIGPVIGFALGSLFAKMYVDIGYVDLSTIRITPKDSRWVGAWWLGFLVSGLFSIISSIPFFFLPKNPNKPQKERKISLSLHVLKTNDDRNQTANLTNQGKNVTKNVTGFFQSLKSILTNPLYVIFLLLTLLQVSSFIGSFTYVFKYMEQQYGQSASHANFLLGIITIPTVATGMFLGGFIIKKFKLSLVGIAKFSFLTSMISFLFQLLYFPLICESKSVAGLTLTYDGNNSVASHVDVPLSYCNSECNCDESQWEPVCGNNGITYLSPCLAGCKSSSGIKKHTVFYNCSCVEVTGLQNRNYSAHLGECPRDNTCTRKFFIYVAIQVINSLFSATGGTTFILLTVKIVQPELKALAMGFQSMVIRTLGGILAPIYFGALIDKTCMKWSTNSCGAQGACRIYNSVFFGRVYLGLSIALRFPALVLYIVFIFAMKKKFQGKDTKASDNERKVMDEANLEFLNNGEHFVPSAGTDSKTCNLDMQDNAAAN

Tests used:
OATP2B1 = OATP2B1 (Homo sapiens, UniProt O94956); assay: Substrate uptake in CHO cells stably expressing OATP2B1; format: cell-based
OATP1B1 = OATP1B1 (Homo sapiens, UniProt Q9Y6L6)
OATP1B3 = OATP1B3 (Homo sapiens, UniProt Q9NPD5)

dehydroepiandrosterone sulfate
cellular accumulation relative to control, CHOOATP2B1 (OATP2B1): 1.3 fold
cellular accumulation relative to control, CHOOATP1B1 (OATP1B1): 13.2 fold
cellular accumulation relative to control, CHOOATP1B3 (OATP1B3): 2.4 fold
